Results on 25 compounds are retold here after PubChem BioAssay AID492956 (The Scripps Research Institute Molecular Screening Center, 2010).

This is a selection; strong and weak results do not stand in their true shares. Some results for these compounds are left out of this collection, so the calls shown say nothing about other tests. Activity calls are given as the source filed them.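 How the source made its calls: active means inhibition above the mean over all tested compounds plus 3 SD (cut at about 30% in these data); inactive means the rest.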

The test addresses Platelet-activating factor acetylhydrolase 2, cytoplasmic (Homo sapiens) (UniProt Q99487). The test is described as follows: PAFAH2 enzyme inhibitors, primary screen, biochemical, fluorescence polarization, human (AID 492956).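 Further: inhibitors block probe labeling of enzyme so polarization drops; 0% = enzyme with DMSO and 100% = wells lacking PAFAH2 protein.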 Conditions: recombinant PAFAH2, FP-rhodamine activity probe, at 3.39 µM, hits give high values. In general terms: Fluorescence polarisation rises when a labelled molecule tumbles more slowly, as on binding a larger partner.
The inhibition is the relative decrease from the control value, in per cent. As to `CN(C)C1CCCC1OC(=O)C(O)(c1ccccc1)c1ccccc1` (stereo not given), the inhibition was inactive: -0.97%.

Turning to `CN(C)c1ccc(C(=O)NCC2(N(C)C)CCCCC2)cc1`, the inhibition was inactive: -3.13%. On to `Cc1ccccc1C(=O)NCC1(N2CCCCC2)CCCCC1`, for which the inhibition was inactive: 2.53%.

As to `O=C(NCC1(N2CCCCC2)CCCCC1)c1cccc(Br)c1`, the inhibition was inactive: 7.48%. In the case of `Cc1cc(C(=O)NCC2(N3CCCCC3)CCCCC2)ccc1[N+](=O)[O-]`, the inhibition was inactive: -3.43%. Take `CCN1CCCC(OC(=O)C2(O)c3ccccc3C=Cc3ccccc32)C1` (stereo not given): the inhibition was inactive: -1.1%. With `COc1ccc(C(=O)NCC2(N(C)C)CCCCC2)cc1`, the inhibition was inactive: 3.44%. As to `O=C(NCC1(N2CCCCC2)CCCCC1)c1cc(F)c(F)cc1Cl`, the inhibition is inactive: -7.33%. As for `C=CCN1CCN(CCOC(=O)C(O)(c2ccccc2)c2ccccc2)CC1`, the inhibition is inactive: -1.69%.

Turning to `CN1[C@@H]2CC[C@H]1CC(OC(=O)C(O)(c1ccccc1)c1ccccc1)C2` (stereo not given in full), the inhibition is inactive: -2.51%. Consider `O=C(NCC1(N2CCCCC2)CCCCC1)c1cc([N+](=O)[O-])ccc1Cl`, for which the inhibition was inactive: 1.06%.

As for `Cc1ccc(C(=O)NCC2(N3CCCCC3)CCCCC2)cc1`, the inhibition is inactive: -11.1%.

As to `CC(C)N1C(=O)CC2(CCN(CCOC(=O)C(O)(c3ccccc3)c3ccccc3)CC2)C1=O`, the inhibition was inactive: 0.91%. For the compound `COc1cc(SC)ccc1C(=O)NCC1(N(C)C)CCCCC1`, the inhibition is inactive: -4.76%. Under `CCN(CC)CC(C)C(C)OC(=O)C(O)(c1ccccc1)c1ccccc1` (stereo not given) stands inactive: -0.15%; under `O=C(OC1CN2CCC1CC2)C(CO)(c1ccccc1)c1ccccc1` (stereo not given), inactive: 2.63%.

Regarding `CN(C)c1cccc(C(=O)NCC2(N(C)C)CCCCC2)c1`, the inhibition was inactive: -1.81%.

For the compound `O=C(OCCN1CCCC1)C(O)(c1ccccc1)c1ccccc1`, the inhibition is inactive: 4.39%. For `CC(C)Oc1ccc(C(=O)NCC2(N(C)C)CCCCC2)cc1`, the inhibition is inactive: -0.48%. Turning to `COc1ccc(Br)c(C(=O)NCC2(N3CCCCC3)CCCCC2)c1`, the inhibition was inactive: 0.51%.

In the case of `COc1cc(C(=O)NCC2(N(C)C)CCCCC2)c([N+](=O)[O-])cc1OC`, the inhibition was inactive: 3.39%. As for `CN(C)C1(CNC(=O)c2ccc(Br)cc2)CCCCC1`, the inhibition is inactive: 4.31%. `O=C(NCC1(N2CCCCC2)CCCCC1)c1cccc(Cl)c1`: the inhibition was inactive: -12.1%. On to `COc1ccc(Cl)cc1C(=O)NCC1(N(C)C)CCCCC1`, for which the inhibition was inactive: -5.14%. On to `COc1cccc(C(=O)NCC2(N3CCCCC3)CCCCC2)c1`, for which the inhibition was inactive: -1.53%.
